Assay outcomes: PubChem BioAssay, Broad Institute
Compounds with a hit are over-represented: about 1% of the library has one in this group of screens.
UUG fidelity = alters start codon recognition fidelity in yeast. S. cerevisiae UUG-firefly luciferase reporter, luminescence/redox ratio. 350,000 tested, 0.13% active. activity score, % at 18.7 µM. AID 602363;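 active means replicate mean at a twofold rise or more, about +100% in these data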;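 further: firefly luciferase made from a UUG start codon reports start codon fidelity; reporter light over untreated wells divided by growth signal over untreated wells; some hits fall short of that in this replicate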
Cneo AK release = Cryptococcus neoformans lysis via adenylate kinase release | C. neoformans lysis, adenylate kinase release luminescence, 4 h; normalised: neutral wells 0, clomiphene wells 100 | lysis activity, % at 15 µM | hit rate 0.2% among 360,000 | AID 651654;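 active = mean lysis activity across replicates of at least 80%, whatever share of replicates individually reach that level; inactive = mean lysis activity below 80%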
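Schedule: static 4 h at 37 °C with compound, 1 h detection; system: C. neoformans cells; benchmarks: Clomiphene as positive control; buffer or medium: fresh YPD medium; measure: luminescence rise reflecting yeast cell lysis; measured by: luminescent adenylate kinase detection reagent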
CDK5 p35 inh = CDK5/p35 (human) kinase inhibition; Q00535+Q15078; Recombinant CDK5/p35, ADP-Glo luminescence, 60 min; inhibition, % at 10 µM; hit rate 0.01% among 330,000; AID 488839;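 active = highest replicate inhibition of at least 50% and at least 75% of replicates reaching 50%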;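 also: plate controls were DMSO neutral control for no effect and GW8510 at 10 µM for full effect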
C2C12 statin = protects C2C12 myotubes from simvastatin toxicity; rescue of ATP level, % at 7.49 µM; hit rate 0.78% among 330,000; ATP luminescence, 48 h; scaled: DMSO 0, geranylgeraniol control 100;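 active = mean ATP rescue above about 67%, or every replicate alone reaching that limit, limit read from the data, passing the limit was not always enough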;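 also: myotubes were challenged with 10 µM simvastatin during compound exposure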
Rtt109 HAT inh = C. albicans Rtt109 histone acetyltransferase inhibition | Q5AAJ8 | purified Rtt109/Vps75, ThioGlo CoA-SH fluorescence, 4 h | inhibition, % at 34.9 µM | hit rate 0.16% among 330,000 | AID 540336;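 active = inhibition of at least 50% in every replicate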
Active calls of the source: *; . = no result given.

(1) Cc1ccc2nc(SCC(=O)Nc3ccc4c(c3)OCCO4)[nH]c2c1
(2) O=C(CSc1ccc2c(c1)OCCO2)Nc1ccc(Br)cc1
(3) O=C(CSc1nc2ccccc2[nH]1)Nc1ccc2c(c1)OCCO2
(4) C[C@@H]1CN([C@H](C)CO)C(=O)c2cccc(NC(=O)c3ccc(-c4nccs4)cc3)c2O[C@H]1CN(C)C(=O)Nc1ccc(C(F)(F)F)cc1
(5) CSc1nsc(SCC(=O)N2CCCc3ccccc32)n1
(6) Cc1ccnc(SCC(=O)N2CCCc3ccccc32)n1
Screen / compound no. | 1 | 2 | 3 | 4 | 5 | 6
UUG fidelity | -42.4 | -7.0 | -14.9 | 3.8 | -8.9 | -9.8
Cneo AK release | -4.6 | 0.9 | -7.2 | -0.9 | -3.0 | 0.0
CDK5 p35 inh | -0.5 | -1.1 | 1.9 | . | 2.0 | -1.6
C2C12 statin | -8.9 | 102.1* | 117.4* | -13.6 | 92.0* | -2.8
Rtt109 HAT inh | 8.9 | -6.2 | -3.1 | . | -2.6 | 2.2

Of the compounds above, these contain a halogen:
(2) O=C(CSc1ccc2c(c1)OCCO2)Nc1ccc(Br)cc1
(4) C[C@@H]1CN([C@H](C)CO)C(=O)c2cccc(NC(=O)c3ccc(-c4nccs4)cc3)c2O[C@H]1CN(C)C(=O)Nc1ccc(C(F)(F)F)cc1
Screen / compound no. | 2 | 4
UUG fidelity | -7.0 | 3.8
Cneo AK release | 0.9 | -0.9
CDK5 p35 inh | -1.1 | .
C2C12 statin | 102.1* | -13.6
Rtt109 HAT inh | -6.2 | .

Next entries.
(7) C[C@H](CO)N1C[C@H](C)[C@H](CN(C)C(=O)NC2CCCCC2)OCCCC[C@H](C)Oc2ccc(NC(=O)NC3CCCCC3)cc2C1=O
(8) Cc1nc(-c2cccc(S(=O)(=O)N3CC(C)OC(C)C3)c2)cs1 (configuration not stated)
(9) CCOC(=O)c1c(NC(=O)CSc2nnc(C)s2)sc2c1CCCCC2
(10) CCOC(=O)c1c(NC(=O)CSc2nnc(C)s2)sc2c1CCC(C)C2 (configuration not stated)
(11) COC(=O)c1nn(C23CC4CC(CC(C4)C2)C3)c2c1C(=O)N(c1ccc(Br)cc1)C2=O
(12) CCOC(=O)c1ccc(N2C(=O)C(C)=C(C)C2=O)cc1
Screen / compound no. | 7 | 8 | 9 | 10 | 11 | 12
UUG fidelity | -6.2 | -13.5 | -12.6 | -4.8 | -6.3 | .
Cneo AK release | -12.4 | -3.5 | 3.9 | 1.4 | 1.2 | .
CDK5 p35 inh | . | -0.1 | -1.4 | -2.3 | 1.0 | -0.7
C2C12 statin | . | 115.1* | . | 98.1* | 68.2* | .
Rtt109 HAT inh | . | -4.6 | 11.8 | 15.1 | 1.4 | 1.8

(13) CCOC(=O)c1nn(C23CC4CC(CC(C4)C2)C3)c2c1C(=O)N(c1ccc(C)cc1)C2=O
(14) C[C@H]1CN([C@@H](C)CO)C(=O)c2cc(NC(=O)NC3CCCCC3)ccc2O[C@H]1CN(C)C
(15) CNC[C@H]1Oc2ccc(NC(=O)Nc3ccc(F)cc3)cc2CC(=O)N([C@H](C)CO)C[C@@H]1C
(16) COc1cccc(C(=O)CN2C3=NCCCN3c3ccccc32)c1
(17) COc1ccc(C(=O)CN2C3=NCCCN3c3ccccc32)cc1OC
(18) Cc1cccc(-n2c(O)c(/C=N/NC(=O)c3ccccc3Cl)c3ccccc3c2=O)n1
Screen / compound no. | 13 | 14 | 15 | 16 | 17 | 18
UUG fidelity | . | -7.4 | 7.8 | -12.1 | . | -17.3
Cneo AK release | . | 0.3 | 3.0 | -0.7 | . | 3.6
CDK5 p35 inh | 3.9 | . | . | 1.0 | -0.5 | 9.2
C2C12 statin | 121.4* | -2.8 | -6.5 | 133.8* | . | .
Rtt109 HAT inh | 0.7 | . | . | -5.7 | 1.0 | 64.4*

More compounds.
Abbreviations – A = UUG fidelity; B = Cneo AK release; C = CDK5 p35 inh; D = C2C12 statin; E = Rtt109 HAT inh
(19) CC(=O)Nc1nc(-c2ccccc2)c(-c2ccccc2)o1
  A: .; B: .; C: 0.7; D: .; E: 58.8*

(20) COc1ccc(S(=O)(=O)N[C@H]2CC[C@@H](CC(=O)N3CCN(c4ccccc4)CC3)O[C@H]2CO)cc1
  A: 17.9; B: -0.9; C: .; D: 2.8; E: .

(21) COC(=O)c1ccccc1SC1CC(=O)N(c2ccccc2)C1=O (configuration not stated)
  A: .; B: .; C: -1.8; D: .; E: 17.8

(22) O=C(O)c1ccccc1SC1CC(=O)N(c2cccc3ccccc23)C1=O (configuration not stated)
  A: -18.6; B: 2.3; C: 1.2; D: -10.2; E: 31.5

(23) CCOC(=O)c1c(N2C(=O)CC(Sc3ccccc3C(=O)O)C2=O)sc2c1CCCC2 (configuration not stated)
  A: .; B: .; C: 1.4; D: .; E: 88.3*

(24) CCN1C(=O)CC(Sc2ccccc2C(=O)O)C1=O (configuration not stated)
  A: -2.8; B: -1.4; C: 0.0; D: 159.1*; E: -3.7

(25) CCOc1ccc(N2C(=O)CC(Sc3ccccc3C(=O)O)C2=O)c([N+](=O)[O-])c1 (configuration not stated)
  A: .; B: .; C: -0.8; D: .; E: 65.4*

(26) O=C1C=C(c2cccs2)CC(c2cccs2)C1n1cnc([N+](=O)[O-])c1 (configuration not stated)
  A: -18.3; B: 2.8; C: -0.7; D: 0.1; E: 1.7

(27) O=C1C=C(c2ccccc2)C[C@H](c2cccs2)[C@H]1n1cnc([N+](=O)[O-])c1
  A: -9.6; B: -0.5; C: 1.4; D: 137.4*; E: 6.7

(28) C=CC1CN(S(=O)(=O)c2ccc(Br)cc2)C(=O)N1c1ccc(Br)cc1 (configuration not stated)
  A: -13.8; B: -2.3; C: .; D: .; E: .

(29) CN(C)C(=O)C[C@@H]1C[C@@H]2c3cc(NS(=O)(=O)c4ccc(F)cc4)ccc3O[C@@H]2[C@H](CO)O1
  A: -4.7; B: -8.7; C: .; D: 1.6; E: .

(30) C[C@@H]1CN([C@H](C)CO)C(=O)Cc2cc(NC(=O)C3CCCCC3)ccc2O[C@H]1CN(C)Cc1ccc(Cl)c(Cl)c1
  A: 9.5; B: -2.0; C: .; D: 139.4*; E: .
